# Yeast mating assay B: variants of the scFv Ab-14

Target: peptide PDVDLGDISGINAS, taken from heptad repeat 2 (HR2) of SARS-CoV-2 spike.

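Phage display of a naive human antibody library on the peptide gave the parent. Designed CDR sequences, proposed from the first random library and measured here. Group labels follow the data file (Ctrl: baseline library sampled from a position-specific scoring matrix, with some repeated check sequences; Rand: our label for a block that the file lists under HC and that is probably the random mutants of the ten best first-round binders; En: ensemble of fine-tuned language models; GP: Gaussian process model; GPLM: also part of the Gaussian process libraries; HC: hill climbing; Gen: genetic algorithm; Gibbs: Gibbs sampling; a sequence that several methods proposed may carry one label only). Affinity was read by AlphaSeq, a pooled yeast mating assay with surface-displayed partners. The frequency of each diploid, read from paired DNA barcodes, reflects how well the two displayed proteins bind. Each replicate has its own calibration line, from reference interactions of the BCL2 family. Each pool was mated in six replicate cultures.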

Parent: Ab-14, a human scFv built as VH, a 15-residue (Gly4Ser)3 linker, VL. Only the CDRs of the heavy chain vary.
VH: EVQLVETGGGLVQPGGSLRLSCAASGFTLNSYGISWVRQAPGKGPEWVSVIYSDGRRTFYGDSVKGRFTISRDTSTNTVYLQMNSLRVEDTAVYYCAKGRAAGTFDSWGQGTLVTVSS
VL: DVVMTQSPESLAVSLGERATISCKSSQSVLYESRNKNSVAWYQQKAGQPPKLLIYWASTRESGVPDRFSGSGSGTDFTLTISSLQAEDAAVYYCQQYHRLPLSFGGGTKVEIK

Each variant is given by its three heavy chain CDRs, as the data file delimits them; those of the parent are GFTLNSYGIS, VIYSDGRRTFYGDSVK, GRAAGTFDS.
Values are log10 of the apparent Kd in nM; lower means stronger binding.
A mean of the replicates is given; it leaves out those without a signal.
"nd" marks a missing value. The strain was present, yet no cells mated with the target were sequenced in any replicate, which points to weak or no binding.
The range of this assay differs from that of the first round, and the authors advise against merging the two.
The parent sequence was in this pool as ten entries: three were never detected, three once, and four in most replicates, with averages from 0.34 to 2.37.
Empty control strains, which show no peptide, gave a signal in 1% of pairings with all heavy chain designs; the median was 2.08 and 95% of these signals were weaker than 0.84. No background was subtracted.
Some sequences occur more than once in the pool; their replicates are pooled.
In the paper, a design with two or fewer of six values counts as a poor binder.

| CDR-H1 | CDR-H2 | CDR-H3 | group | mean, log10 nM | detected |
|---|---|---|---|---|---|
| GFTLNDYGIS | VIYSDGRRTFYGDSVK | GRAAGTFIQ | GPLM_HC | nd | 0 of 6 |
| GFDLDEYGIS | VIYADGQRTAYADSVK | GNVAGTFDL | En_Gen | -0.04 | 6 of 6 |
| GFTLNSYGIS | VIYSDGRRTFYVDSVK | GQTAGTFDV | GP_Gibbs | 1.34 | 5 of 6 |
| GFNINEYGIS | VIYADGTKTAYANTVK | GKYVGTFVD | En_Gibbs | nd | 0 of 6 |
| KFNLNSYGIS | VIYSDGRRTFYGDSVK | GKTAGTFDS | GPLM_Gibbs | 1.96 | 3 of 6 |
| GFDLNDYGIS | VIYADGRRTAYIDSVK | GEAAGTFDL | En_HC | -0.31 | 6 of 6 |
| GFSLNSYGIS | VIYSDGRRTFYGDNVK | GNAAGTFDS | GPLM_Gibbs | 0.82 | 6 of 6 |
| GFSLNSYGIS | VIYSDGKRTFYGDSVK | GEAAGTFDS | GPLM_Gen | 0.35 | 6 of 6 |
| GFSLNSYGIS | VIYSDGRRTFYADSVK | GREAGTFDK | GPLM_Gen | -0.26 | 6 of 6 |
| GFDLNEYGIS | VIYADGVRTSYADSVK | GNNAGTFDI | En_Gen | 0.50 | 6 of 6 |
| GFVLNSYGIS | VIYSDGRRTFYSDSVK | GEAAGTFDS | GPLM_Gen | nd | 0 of 6 |
| GFTLNSYGIS | VIYSDGRRTFYGDSVK | GRAGGTFIS | Ctrl | nd | 0 of 6 |
| GFQLNSYGIS | VIYSDGRRTFYKDQVK | GRTAGTFDS | GP_Gibbs | 1.39 | 4 of 6 |
| GFNLDEYGIS | VIYADGQRTAYDQAVK | GRMGTWNIV | En_Gibbs | -0.31 | 6 of 6 |
| GFSLNSYGIS | VIYSDGRRTFYGDSVK | GSTAGTFDR | GP_Gen | 0.54 | 6 of 6 |
| GFDLNEYGIS | VIYADGMRTAYTDSVK | GNHAGTFDV | En_Gen | -0.67 | 6 of 6 |
| GFDLNEYGIS | VIYADGVRKAYADSVK | GNVAGTFDL | En_Gen | -0.97 | 6 of 6 |
| GFDLNEYGIS | VIYADGMRTVYADSVK | GENAGTFDM | En_Gen | -0.62 | 6 of 6 |
| GFDLDEYGIS | VIYADGMRTAYADDVK | GNQAGTFDV | En_Gen | -0.48 | 6 of 6 |
| GFTLNSYGIS | VIYSDGRRTFYTDSVK | GREAGTFDS | Ctrl+GPLM_HC | 0.12 | 6 of 12 |
| GFNLNEYGIS | VIYADGRRTFYADSVK | GNTAGTFDV | En_HC | -0.61 | 6 of 6 |
| GFDLDEYGIS | VIYADGMRTAYTQKVK | GRETDTNVV | En_Gibbs | nd | 0 of 6 |
| GFDLNSYGIS | VIYSDGRRTFYGDQVK | GQAAGTFDS | GP_Gen | 0.41 | 6 of 6 |
| GFTLNSYGIS | VIYHDGRRTFYHDSVK | GRERGTFDS | Ctrl | nd | 0 of 6 |
| GFTLNEYGIS | VIYSDGRRTFYDDSVK | GRTAGTFDS | GP_HC | 0.03 | 6 of 6 |
| GFDLDEYGIS | VIYADGRRTAYSDSVK | GNTAGTFDV | En_Gen | -1.12 | 6 of 6 |
| GFDLDEYGIS | VIYADGRRTFYSDSVK | GEVAGTFDV | En_HC | -0.56 | 6 of 6 |
| GFNINEYGIS | VIYADGIRTHYVDDVK | GKHTGVKMD | En_Gibbs | nd | 0 of 6 |
| GFELNSYGIS | VIYSDGRRTFYSDSVK | GKAGGTFDS | GP_HC | 1.23 | 6 of 6 |
| GFDLNEYGIS | VIYSDGRRTFYGDSVK | GRAADTFDQ | GP_HC | nd | 0 of 6 |
| GFDLNEYGIS | VIYADGTRTAYADSVK | GNVAGTFDL | En_Gen | 0.39 | 5 of 6 |
| GFTLNSYGIS | VIYSDGRRTFYGDSVK | GHEAGTFDT | GPLM_Gen | 0.61 | 6 of 6 |
| GFDLENYGIS | VIYADGIRKVYDQSVK | GQMGGTFTV | En_Gibbs | nd | 0 of 6 |
| GFDLNTYGIS | VIYSDGRRTFYADSVK | GEAAGTFDS | GPLM_Gen | 0.22 | 6 of 6 |
| GFDLDEYGIS | VIYADGMRTFYADSVK | GTLAGTFDA | En_HC | -0.04 | 6 of 6 |
| GFTLNMYGIS | VIYSDGTRTFYSDSVK | GRAAGTFDS | GP_HC | 0.74 | 6 of 6 |
| GFTKNSYGIS | VIYSDGRRTFYGDSVK | GRLAGTFDS | Ctrl | nd | 0 of 6 |
| GFDLEDYGIS | VIYADGRRTAYADSVK | GEIAGTFDL | En_HC | -0.72 | 5 of 6 |
| GFDLDEYGIS | VIYADGKRTAYADTVK | GNVAGTFDV | En_Gen | -0.42 | 6 of 6 |
| GFTLESYGIS | VIYSDGRRTFYGDPVK | GRTAGTFDS | GPLM_Gibbs | nd | 0 of 6 |
| GFTLNSYGIS | VIYSDGRRTFYGDSVK | GDRAGTFDS | Ctrl | 1.60 | 6 of 6 |
| GFTLNSYGIS | VIYSDGERTFYCDSVK | GRTAGTFDS | GP_HC | 1.73 | 5 of 6 |
| GFSLNDYGIS | VIYSDGRRTFYGDSVK | GRTAGTFDA | GPLM_Gen | -0.24 | 6 of 6 |
| GFNLDEYGIS | VIYADGRRTFYADSVK | GEQAGTFDT | En_HC | -0.02 | 6 of 6 |
| GFTLNMYGIS | VIYSDGRRTFYSDSVK | GTAAGTFDS | GP_HC | nd | 0 of 6 |
| GFTLNSYGIS | VIYSDGRRTFYSDSLK | GRAGFTFDS | Rand | nd | 0 of 6 |
| GFDLNEYGIS | VIYADGIRSRYANKVK | GNQAGTLLI | En_Gibbs | nd | 0 of 6 |
| GFDLNEYGIS | VIYADGVRTYYADDVK | GNQAGTFDV | En_Gen | -0.04 | 6 of 6 |
| GFDLNEYGIS | VIYADGKRTAYADSVK | GNVAGTFDS | En_Gen | nd | 0 of 6 |
| GFDLNEYGIS | VIYADGMRTAYANSVK | GENAGTFDV | En_Gen | 0.63 | 6 of 6 |
| GFDLNSYGIS | VIYSDGRRTFYADSVK | GRAAGTFDV | GP_Gen | 0.08 | 6 of 6 |
| GTTLNLYGIS | VIYSDGRRTFMADSVK | WTAAGTFDS | Ctrl | 0.67 | 1 of 6 |
| GFKLNSYGIS | VIYSDGRRTFYGDSVK | GKEAGTFDS | GP_Gen | nd | 0 of 6 |
| GFELNSYGIS | VIYADGRRTFYGDSVK | GKAAGTFDW | GP_Gen | 1.21 | 5 of 6 |
| GFDLNEYGIS | VIYADGVRTAYADDVK | GEVAGTFDM | En_Gen | -0.60 | 6 of 6 |
| GFSLDEYGIS | VIYADGRRTMYCDNFK | GELGCTFKI | En_Gibbs | nd | 0 of 6 |
| CFTLNSYGIS | VIYSDGRRTFYADSVK | GQLAGTFDS | GP_HC | 0.34 | 6 of 6 |
| GFDIEEYGIS | VIYADGIRANYDQKVK | GTIAGTFVD | En_Gibbs | 1.59 | 6 of 6 |
| KFQLNSYGIS | VIYSDGRRTFYQDSVK | GQTAGTFDS | GP_Gibbs | 0.92 | 1 of 6 |
| GFDLDEYGIS | VIYADGRRTFYSDSVK | GSNAGTFDV | En_HC | 0.13 | 6 of 6 |
| GFGLNEYGIS | VIYSDGRRTFYHDSVK | GHAAGTFDS | GP_Gen | 0.05 | 6 of 6 |
| GFTLNEYGIS | VIYSDGKRTFYGDSVK | GQAAGTFDL | GPLM_Gen | 0.45 | 6 of 6 |
| GDSLAEYGIS | VIYADGIRSAYIDSFK | GWVAGYFDV | En_Gibbs | nd | 0 of 6 |
| GFNLDEYGIS | VIYADGKRTAYADSVK | NSVMSGRVT | En_Gibbs | nd | 0 of 6 |
| GFTLNSYGIS | VIYSDGRRTFYTDSVK | GRAALTFDS | Ctrl | nd | 0 of 6 |

For reference, 7 entries of the list once more:

| CDR-H1 | CDR-H2 | CDR-H3 | group | mean, log10 nM | detected |
|---|---|---|---|---|---|
| GFNLDEYGIS | VIYADGRRTFYADSVK | GEQAGTFDT | En_HC | -0.02 | 6 of 6 |
| GFTLNEYGIS | VIYSDGRRTFYDDSVK | GRTAGTFDS | GP_HC | 0.03 | 6 of 6 |
| GFTLNSYGIS | VIYSDGRRTFYVDSVK | GQTAGTFDV | GP_Gibbs | 1.34 | 5 of 6 |
| GFTLNEYGIS | VIYSDGKRTFYGDSVK | GQAAGTFDL | GPLM_Gen | 0.45 | 6 of 6 |
| GFTKNSYGIS | VIYSDGRRTFYGDSVK | GRLAGTFDS | Ctrl | nd | 0 of 6 |
| GFTLNSYGIS | VIYSDGERTFYCDSVK | GRTAGTFDS | GP_HC | 1.73 | 5 of 6 |
| GFDLDEYGIS | VIYADGMRTFYADSVK | GTLAGTFDA | En_HC | -0.04 | 6 of 6 |

Source: Li et al. 2023 (doi:10.1038/s41467-023-39022-2), MIT Lincoln Laboratory and A-Alpha Bio; data file from the FLAb repository.